Target: T1, Interstitial collagenase (Homo sapiens, UniProt P03956)
T1 sequence (P03956 whole entry): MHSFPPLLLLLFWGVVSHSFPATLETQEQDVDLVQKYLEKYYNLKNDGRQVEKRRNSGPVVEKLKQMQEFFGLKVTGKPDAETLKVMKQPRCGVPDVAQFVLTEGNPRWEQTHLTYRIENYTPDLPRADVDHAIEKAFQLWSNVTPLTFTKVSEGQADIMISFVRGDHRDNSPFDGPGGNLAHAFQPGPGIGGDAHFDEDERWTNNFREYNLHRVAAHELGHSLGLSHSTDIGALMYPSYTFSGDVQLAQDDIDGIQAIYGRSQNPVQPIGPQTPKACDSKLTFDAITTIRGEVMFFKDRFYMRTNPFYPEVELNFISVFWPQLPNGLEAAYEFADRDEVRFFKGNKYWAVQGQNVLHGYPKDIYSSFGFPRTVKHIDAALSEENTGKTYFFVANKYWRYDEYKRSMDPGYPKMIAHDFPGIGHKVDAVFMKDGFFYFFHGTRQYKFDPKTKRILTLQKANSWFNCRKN
Test: Inhibitory concentration against matrix metalloprotease-1 at 1 uM

SMILES	IC50 [µM]
CC#CCOc1ccc(S(=O)(=O)N2CCCN(C(C)=O)CC2C(=O)NO)cc1 (configuration not stated)	2.12
CC#CCOc1ccc(S(=O)(=O)N2CCCN(C(=O)c3cccs3)CC2C(=O)NO)cc1 (configuration not stated)	0.645

From ChEMBL document CHEMBL1140260, “Synthesis and SAR of diazepine and thiazepine TACE and MMP inhibitors” (Bioorg Med Chem Lett, 2005)
